Results published in publication PMC2475716 (The Journal of Biological Chemistry, 2008).

Target: T1, Decoy Met (UniProt P08581 25-932)
T1 sequence (looked up): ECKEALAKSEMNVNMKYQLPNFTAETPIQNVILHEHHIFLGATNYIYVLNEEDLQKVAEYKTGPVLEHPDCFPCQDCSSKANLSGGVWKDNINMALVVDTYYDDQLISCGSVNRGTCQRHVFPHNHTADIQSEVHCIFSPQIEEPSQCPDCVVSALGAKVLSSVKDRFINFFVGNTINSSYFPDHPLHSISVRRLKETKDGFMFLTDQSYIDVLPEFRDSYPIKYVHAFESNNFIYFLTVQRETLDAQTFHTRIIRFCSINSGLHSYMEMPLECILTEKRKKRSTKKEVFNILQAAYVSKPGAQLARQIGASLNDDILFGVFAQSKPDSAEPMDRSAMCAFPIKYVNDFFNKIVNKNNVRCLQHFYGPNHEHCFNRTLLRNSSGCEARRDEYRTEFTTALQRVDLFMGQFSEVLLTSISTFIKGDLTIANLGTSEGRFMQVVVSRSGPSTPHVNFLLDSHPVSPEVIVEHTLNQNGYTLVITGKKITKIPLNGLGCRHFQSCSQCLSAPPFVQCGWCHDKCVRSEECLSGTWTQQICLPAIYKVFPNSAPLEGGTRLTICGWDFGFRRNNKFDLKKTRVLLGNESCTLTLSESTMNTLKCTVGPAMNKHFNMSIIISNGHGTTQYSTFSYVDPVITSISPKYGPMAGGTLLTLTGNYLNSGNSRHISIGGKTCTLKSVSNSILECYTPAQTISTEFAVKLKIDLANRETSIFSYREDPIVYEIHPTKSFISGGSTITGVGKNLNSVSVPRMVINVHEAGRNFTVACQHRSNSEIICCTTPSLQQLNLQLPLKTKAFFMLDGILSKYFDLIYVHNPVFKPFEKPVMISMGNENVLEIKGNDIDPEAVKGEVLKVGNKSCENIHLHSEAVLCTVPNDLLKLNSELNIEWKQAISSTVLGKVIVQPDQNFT
Assay: ELISA

B1: pro-HGF (uncleavable HGF) (ligand, UniProt P14210 32-728, looked up)
chain: QRKRRNTIHEFKKSAKTTLIKIDPALKIKTKKVNTADQCANRCTRNKGLPFTCKAFVFDKARKQCLWFPFNSMSSGVKKEFGHEFDLYENKDYIRNCIIGKGRSYKGTVSITKSGIKCQPWSSMIPHEHSFLPSSYRGKDLQENYCRNPRGEEGGPWCFTSNPEVRYEVCDIPQCSEVECMTCNGESYRGLMDHTESGKICQRWDHQTPHRHKFLPERYPDKGFDDNYCRNPDGQPRPWCYTLDPHTRWEYCAIKTCADNTMNDTDVPLETTECIQGQGEGYRGTVNTIWNGIPCQRWDSQYPHEHDMTPENFKCKDLRENYCRNPDGSESPWCFTTDPNIRVGYCSQIPNCDMSHGQDCYRGNGKNYMGNLSQTRSGLTCSMWDKNMEDLHRHIFWEPDASKLNENYCRNPDDDAHGPWCYTGNPLIPWDYCPISRCEGDTTPTIVNLDHPVISCAKTKQLQVVNGIPTRTNIGWMVSLRYRNKHICGGSLIKESWVLTARQCFPSRDLKDYEAWLGIHDVHGRGDEKCKQVLNVSQLVYGPEGSDLVLMKLARPAVLDDFVSTIDLPNYGCTIPEKTSCSVYGWGYTGLINYDGLLRVAHLYIMGNEKCSQHHRGKVTLNESEICAGAEKIGSGPCEGDYGGPLVCEQHKMRMVLGVIVPGRGCAIPNRPGIFVRVAYYAKWIHKIILTYKVPQS
fold reduced affinity compared with active HGF: 3 fold
